The text below walks through data of ChEMBL document CHEMBL3414476, “Novel multitarget-directed ligands (MTDLs) with acetylcholinesterase (AChE) inhibitory and serotonergic subtype 4 receptor (5-HT4R) agonist activities as potential agents against Alzheimer's disease: the design of donecopride” (J Med Chem, 2015).

The chains behind the UniProt entries cited, without tags or fusion partners. Residues count along the entry.
UniProt P22303, 32-614 limits assumed: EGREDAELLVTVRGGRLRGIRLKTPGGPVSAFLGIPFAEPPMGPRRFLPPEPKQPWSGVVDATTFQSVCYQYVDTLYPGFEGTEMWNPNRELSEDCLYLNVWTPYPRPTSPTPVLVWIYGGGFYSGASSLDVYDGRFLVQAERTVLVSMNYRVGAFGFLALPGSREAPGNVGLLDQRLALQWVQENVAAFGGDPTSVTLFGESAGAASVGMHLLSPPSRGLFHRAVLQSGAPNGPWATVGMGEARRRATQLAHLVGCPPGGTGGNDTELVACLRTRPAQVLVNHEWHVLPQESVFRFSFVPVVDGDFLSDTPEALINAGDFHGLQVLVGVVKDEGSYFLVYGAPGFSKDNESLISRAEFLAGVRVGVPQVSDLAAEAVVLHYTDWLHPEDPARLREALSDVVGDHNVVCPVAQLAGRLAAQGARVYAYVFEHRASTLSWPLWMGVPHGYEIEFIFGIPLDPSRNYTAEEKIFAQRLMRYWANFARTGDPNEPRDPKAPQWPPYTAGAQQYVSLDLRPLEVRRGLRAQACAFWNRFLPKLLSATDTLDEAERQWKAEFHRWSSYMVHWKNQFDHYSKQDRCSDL
UniProt P81908, whole entry, looked up: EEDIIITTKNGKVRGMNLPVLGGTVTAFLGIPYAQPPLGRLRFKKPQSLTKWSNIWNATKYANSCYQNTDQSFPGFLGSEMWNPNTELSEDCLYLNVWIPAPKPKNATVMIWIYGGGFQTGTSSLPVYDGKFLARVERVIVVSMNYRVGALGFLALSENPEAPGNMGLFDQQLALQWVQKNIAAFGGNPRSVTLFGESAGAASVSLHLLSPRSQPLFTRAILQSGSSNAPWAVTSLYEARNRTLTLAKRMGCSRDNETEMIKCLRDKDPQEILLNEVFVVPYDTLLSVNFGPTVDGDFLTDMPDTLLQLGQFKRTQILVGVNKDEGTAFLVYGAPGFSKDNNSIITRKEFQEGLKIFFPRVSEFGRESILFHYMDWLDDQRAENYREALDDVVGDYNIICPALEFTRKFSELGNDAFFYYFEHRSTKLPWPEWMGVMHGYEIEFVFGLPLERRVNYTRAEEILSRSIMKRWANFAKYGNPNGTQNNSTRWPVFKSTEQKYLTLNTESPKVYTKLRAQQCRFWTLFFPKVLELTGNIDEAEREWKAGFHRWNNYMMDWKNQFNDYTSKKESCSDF

Assay [1] concerns the target Acetylcholinesterase (Homo sapiens, UniProt P22303).
Assay [2] has as its target Cholinesterase (Equus caballus, UniProt P81908). The experiment in a line: Inhibition of equine serum BuChE pre-incubated for 5 mins before butyrylthiocholine iodide substrate by Ellman' method.

SMILES strings stand for the structures.

In the case of `COc1cc(N)c(Cl)cc1/C(CCC1CCN(CC2CCCCC2)CC1)=N/O`, the values for the IC50 in assay [1] and in assay [2] were 0.024 µM and 7.08 µM, respectively.
